AlphaSeq binding of Ab-14 light chain variants to a spike HR2 peptide

Values reported by Engelhart et al. 2022, doi:10.1038/s41597-022-01779-4 (FLAb copy).

Target: peptide PDVDLGDISGINAS, taken from heptad repeat 2 (HR2) of SARS-CoV-2 spike.

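The starting antibody came from a phage panning campaign against this peptide. Library AAYL50 holds single substitutions and randomly drawn double and triple substitutions in the CDRs. Affinity was read by AlphaSeq, a pooled yeast mating assay with surface-displayed partners. Mating (16 h, 30 °C) was followed by selection of diploids and sequencing of their barcodes. Each replicate has its own calibration line, from reference interactions of the BCL2 family. Each pool was mated in three replicate cultures.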

Parent: Ab-14, a human scFv built as VH, the linker GGGGSGGGGSGGGGS, VL. Only the CDRs of the light chain vary.
VH: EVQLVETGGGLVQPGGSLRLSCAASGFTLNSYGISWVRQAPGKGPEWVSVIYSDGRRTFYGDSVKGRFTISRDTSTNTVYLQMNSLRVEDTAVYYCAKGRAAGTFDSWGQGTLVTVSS
VL: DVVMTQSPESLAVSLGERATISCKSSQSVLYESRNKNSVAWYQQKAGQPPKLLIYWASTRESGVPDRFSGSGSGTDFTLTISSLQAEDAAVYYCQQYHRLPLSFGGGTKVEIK

Positions count from residue 1 of the parent VL; S33D puts D in place of S.
Every variant below is changed at V39 of the VL (sequential numbering).
Values are apparent Kd, the geometric mean of the replicates that gave a signal; lower means stronger binding.
An entry "nd" has no value in the source: the pair was not observed among the diploids in any replicate. This suggests poor binding but is not conclusive.
As a blank, each scFv also met three strains without target: over library AAYL50, 18% of these pairings were detected, typically at 15 µM and seldom below 970 nM.

With S33D V39N P101S the result was 550 µM (1 of 3 replicates). With V39P S103G the result was 19 µM (1 of 3 replicates). With S26W V39W the result was 33 µM (2 of 3 replicates). Variant S26P V39P A40N showed nd (0 of 3 replicates). With V39P Y97Q the result was 2.6 µM (1 of 3 replicates). For Y31P V39L, the assay gave nd (0 of 3 replicates). Variant V39L Y97R showed 2.3 µM (3 of 3 replicates). For K24V S28A V39T, the assay gave 140 µM (1 of 3 replicates).

With E32I V39I the result was nd (0 of 3 replicates). With K24W L30I V39P the result was nd (0 of 3 replicates). Variant V39F S62F showed nd (0 of 3 replicates). Variant V39K R60S Y97M gave 180 µM (2 of 3 replicates). For N35I V39T L102I, the assay gave 13 µM (2 of 3 replicates). Variant R34D V39G H98T gave 65 nM (3 of 3 replicates). For R34D K36T V39C, the assay gave 350 nM (3 of 3 replicates). For V39F R60E E61H, the assay gave 35 µM (2 of 3 replicates).

Variant R34D V39W showed 500 nM (1 of 3 replicates). With V39L T59M R60T the result was 11 µM (2 of 3 replicates). Variant S25L V39C H98F gave 130 nM (3 of 3 replicates). Variant S33N V39S S103E gave nd (0 of 3 replicates). Variant V39Q S103G gave nd (0 of 3 replicates). Variant V39E A40S showed 3.4 µM (1 of 3 replicates). Variant L30S V39M gave nd (0 of 3 replicates). Variant V39H T59E Q96R gave 44 µM (3 of 3 replicates).

Variant V39L S62N Y97W gave nd (0 of 3 replicates). Variant V39F A40R S62G gave 34 nM (3 of 3 replicates). For S26N E32D V39G, the assay gave 310 µM (2 of 3 replicates). With S33P V39C S103Q the result was 3.6 µM (3 of 3 replicates). With V39A A40D Q95P the result was nd (0 of 3 replicates). Variant V39C Q95I gave 14 µM (2 of 3 replicates). With S26F V29A V39Y the result was nd (0 of 3 replicates). Variant V39A W56K S58D showed 7.6 µM (3 of 3 replicates).

For S25W V29L V39W, the assay gave nd (0 of 3 replicates). For V39G A57G S62W, the assay gave 1.6 mM (1 of 3 replicates). Variant V39M E61F Q95Y showed 1.6 µM (1 of 3 replicates). With V39T R60D S62V the result was nd (0 of 3 replicates). For R34I V39T L102V, the assay gave nd (0 of 3 replicates). Variant S28I N37F V39P gave 28 µM (1 of 3 replicates). For Q27V N37V V39N, the assay gave nd (0 of 3 replicates). Variant N35C V39A S62Q showed nd (0 of 3 replicates).

With S25M N37P V39W the result was nd (0 of 3 replicates). With S25M V39K W56M the result was nd (0 of 3 replicates). For K36M V39Y Y97E, the assay gave nd (0 of 3 replicates). Variant S26Y S38N V39T gave nd (0 of 3 replicates). For V39F A40K Q96G, the assay gave 11 µM (1 of 3 replicates). Variant Y31P S38E V39P showed 31 µM (1 of 3 replicates). With S33F V39W the result was 54 µM (1 of 3 replicates). For V39R Q95F, the assay gave nd (0 of 3 replicates).

The 4 strongest on average among those seen in every replicate, once more:

For V39F A40R S62G, the assay gave 34 nM (3 of 3 replicates).
For R34D V39G H98T, the assay gave 65 nM (3 of 3 replicates).
For S25L V39C H98F, the assay gave 130 nM (3 of 3 replicates).
For R34D K36T V39C, the assay gave 350 nM (3 of 3 replicates).

For reference, the parent read 4.4 nM as the reference entry and 48 nM as a member of this library.